Screening data deposited in PubChem BioAssay by ICCB-Longwood Screening Facility, Harvard Medical School.
In the library only some 0.7% were active in any assay of this set; here they are far more common.
HCMV NEC inh = cytomegalovirus nuclear egress complex inhibition; HTRF UL50-UL53 interaction, normalized percent inhibition; inhibition, % (test concentration not listed); 190,000 tested, 0.15% active; in the data active = inhibition above about 27%, passing the limit was not always enough
Sa growth inh = S. aureus growth inhibition; S. aureus RN4220 growth, OD600, 20 h, 42 °C; hits give low values; relative growth, % (concentration not given with the values); 170,000 tested, 0.53% active; AID 720641;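 active = relative growth at most 50% at the other temperature and 20+ points below 30 °C, or under 10% at both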
GIV Gai3 FP = inhibitors of GIV peptide binding to Galpha-i3, primary screen, biochemical, fluorescence polarization, FITC-GIV GBA peptide, rat Galphai3; 90 min; stronger effect = lower value; scaled: aluminum fluoride 0%, vehicle 100%; percent of control (FP), % (no concentration beside the values); 210,000 tested, 0.42% active; AID 1224905, 2016;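 active = replicate mean at 85% of control or lower, very high polarization wells dropped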;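 note: wells of about 15 µL received 100 nL stock; the first replicate is given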
Each line names hits and unclear results; the compound was inactive in the other large screens.

Cc1n[nH]c(=O)c2c(C)n(-c3ccccc3)nc12	none (no result: Sa growth inh)
c1ccc(Nc2nc3ccccc3[nH]2)nc1	Sa growth inh 0.9 (no result: GIV Gai3 FP)
CNc1nc2ccccc2[nH]1	none (no result: GIV Gai3 FP)
O=C(c1ccc2c(c1)CCCN2S(=O)(=O)c1ccccc1)N1CCN(c2ccccc2F)CC1	none (no result: Sa growth inh)
N#CC1=C(N)SC(N)=C(C#N)C1c1ccncc1	none (no result: GIV Gai3 FP)
N#CC1=C(N)SC(N)=C(C#N)C1c1ccccc1	GIV Gai3 FP -0.3
CC(=O)C1=NN(c2ccc([N+](=O)[O-])cc2)C2(S1)c1ccccc1C(c1cc(C)ccc1C)=NN2c1ccccc1 (stereo not drawn)	none (no result: HCMV NEC inh, Sa growth inh)
CCSc1nc2c(c(=O)[nH]1)C(C(=O)Nc1ccccc1C)CC(=O)N2 (stereo not drawn)	none (no result: HCMV NEC inh, Sa growth inh)
Cc1cccc(-c2nc3c(cnn3-c3ccccc3)c(=O)n2-c2ccc(Br)cc2)c1	HCMV NEC inh 56
Cc1ccc(-n2c(-c3cccc(C)c3)nc3c(cnn3-c3ccccc3)c2=O)cc1	none
CCN(Cc1ccccc1)C(=O)Nc1c[nH]c2ccccc12	Sa growth inh 3.6
CCN(Cc1ccccc1)C(=O)Cc1ccccc1	none
N#CC1=C(SCC(=O)Nc2ccc(Br)cc2)NC(=O)C(C#N)C12CCC(c1ccccc1)CC2 (stereo not drawn)	none (no result: Sa growth inh)
CCn1c(O)c(/C=N/c2nc3ccccc3[nH]2)sc1=S	none (no result: Sa growth inh, GIV Gai3 FP)
CCn1c(O)c(C=Nc2cccc(O)c2)sc1=S	GIV Gai3 FP 66
CCOc1cccc(NC(=O)C2CC(=O)N(C)C(=Nc3ccc(Br)cc3)S2)c1 (stereo not drawn)	none (no result: Sa growth inh)
Cc1cc(O)c(-c2[nH]ncc2-c2nc(C)cs2)c(O)c1	none (no result: Sa growth inh, GIV Gai3 FP)
CS(=O)(=O)c1ncc(Cl)c(C(=O)N2CCN(c3cccc(Cl)c3)CC2)n1	none
CCS(=O)(=O)c1ncc(Cl)c(C(=O)Nc2ccc(S(N)(=O)=O)cc2)n1	none (no result: Sa growth inh)
CCS(=O)(=O)c1ncc(Cl)c(C(=O)Nc2ccc(Cl)cc2)n1	Sa growth inh 1.8
CCS(=O)(=O)c1ncc(Cl)c(C(=O)N2CCN(c3cccc(Cl)c3)CC2)n1	Sa growth inh 7.0
CNCCCNCc1ccc(-c2ccc(F)c(Cl)c2)o1	none (no result: Sa growth inh)
Nc1cccc(-c2ncon2)c1	HCMV NEC inh 83
Nc1cccc(-c2cnco2)c1	none
O=C(c1nnc(-c2csc(S(=O)(=O)NCCC3=CCCCC3)c2)o1)N1CCCC1	none (no result: HCMV NEC inh, Sa growth inh)
C=C1C(C(=O)N2CCN(Cc3ccccc3)CC2)C1C(=O)N1CCN(Cc2ccccc2)CC1 (stereo not drawn)	none (no result: GIV Gai3 FP)
CCN(CC)c1ccc2cc(-c3nc4sc5c(c4c(=O)[nH]3)CCC(C(C)(C)C)C5)c(=O)oc2c1 (stereo not drawn)	GIV Gai3 FP -66
CC(C)(C)C1CCc2c(sc3nc(-c4cc5ccccc5oc4=O)[nH]c(=O)c23)C1 (stereo not drawn)	none
CNC(=O)c1cc(C#N)c(SCC(=O)O)nc1N	none (no result: GIV Gai3 FP)
S=C=Nc1ccc(N=C=S)cc1	none (no result: Sa growth inh, GIV Gai3 FP)
FC(F)Sc1ccc(N=C=S)cc1	Sa growth inh -0.8 (no result: GIV Gai3 FP)
CN(C(=O)C1CCN(c2ncc(-c3ccccc3)cn2)CC1)C1CCCCC1	none (no result: HCMV NEC inh, Sa growth inh)
CC(=NCC(c1ccco1)N1CCCCC1)C1=C(O)CC2(CCCCC2)CC1=O (stereo not drawn)	none (no result: GIV Gai3 FP)
CC[C@H]1OC(=O)C[C@@H](O)[C@H](C)[C@@H](O[C@@H]2O[C@H](C)[C@@H](O[C@H]3C[C@@](C)(O)[C@@H](O)[C@H](C)O3)[C@H](N(C)C)[C@H]2O)[C@@H](CC=O)C[C@@H](C)C(=O)/C=C/C(C)=C/[C@@H]1CO[C@@H]1O[C@H](C)[C@@H](O)[C@@H](OC)[C@H]1OC	Sa growth inh -0.2 (no result: GIV Gai3 FP)
CC[C@@H]1OC(=O)C[C@H](O)[C@@H](C)[C@@H](O[C@@H]2O[C@H](C)[C@@H](O[C@H]3C[C@@](C)(O)[C@@H](O)[C@H](C)O3)[C@H](N(C)C)[C@H]2O)[C@@H](C=O)C[C@@H](C)C(=O)/C=C/C(C)=C\[C@@H]1CO[C@H]1O[C@@H](C)[C@H](O)[C@H](OC)[C@@H]1OC	Sa growth inh -1.0
COC(=O)CSc1ncn(-c2ccccc2)n1	none
Cc1cccc(N2C(=O)CSC(C)C2=O)c1 (stereo not drawn)	none (no result: Sa growth inh)
Cc1cccc(Cc2cnc(N3C(=N)SC(C)C3=O)s2)c1 (stereo not drawn)	Sa growth inh 2.8 (no result: HCMV NEC inh)
O=C(CSc1ncc(-c2ccccc2)n1-c1ccccc1)NC1CCS(=O)(=O)C1 (stereo not drawn)	none (no result: GIV Gai3 FP)
CNCc1ccc2ccccc2c1	none (no result: GIV Gai3 FP)
Cc1ccnc(SCC(=O)/C=C2\N(C)c3ccccc3C2(C)C)n1	none (no result: GIV Gai3 FP)
CN1/C(=C\C(=O)CSCCO)C(C)(C)c2ccccc21	Sa growth inh -0.5 (no result: GIV Gai3 FP)
CN(C)CCCNCc1ccco1	none
CN(C)CCCNCc1cccn1C	HCMV NEC inh 33
CCCCC(=O)OC1=C(C(=O)c2ccccc2)N(CC)S(=O)(=O)c2ccccc21	none
CCCCN1C(C(=O)c2ccccc2)=C(OC(C)=O)c2ccccc2S1(=O)=O	Sa growth inh -0.5
CCOc1cc(/C=C2/SC(=S)N(C)C2=O)cc(Br)c1O	GIV Gai3 FP -47
CCOc1cc(/C=C2/SC(=Nc3ccccc3)NC2=O)cc(Br)c1O	none (no result: Sa growth inh)
COCCNC(=O)C1CCN(c2cc(C)nc3c(-c4ccc(OC)c(OC)c4)c(C)nn23)CC1	none (no result: Sa growth inh)
O=c1c2c(-c3cccs3)csc2[nH]c(=S)n1-c1ccccc1	none
CC(C)n1c(=S)[nH]c2scc(-c3cccs3)c2c1=O	Sa growth inh 3.9 (no result: GIV Gai3 FP)
CN(C)c1cccc(C(=O)NC(=NCc2ccncc2)Nc2ccc(F)cc2)c1	none (no result: Sa growth inh)
O=C(O)c1cccc2cccc(C(=O)O)c12	none
Nc1ccc(C(=O)O)c2c(C(=O)O)cccc12	GIV Gai3 FP 72
CO[C@H]1C[C@H](O[C@H]2[C@H](C)[C@@H](OC3O[C@H](C)C[C@H](N(C)C)[C@H]3O)[C@@H](C)C[C@]3(CO3)C(=O)[C@H](C)[C@@H](O)[C@@H](C)[C@@H](C)OC(=O)[C@@H]2C)O[C@@H](C)[C@@H]1O (stereo partly drawn)	Sa growth inh -0.6 (no result: GIV Gai3 FP)
CO[C@H]1C[C@H](O[C@H]2[C@H](C)[C@@H](OC3O[C@H](C)C[C@H](N(C)C)[C@H]3OC(C)=O)[C@@H](C)C[C@]3(CO3)C(=O)[C@H](C)[C@@H](OC(C)=O)[C@@H](C)[C@@H](C)OC(=O)[C@@H]2C)O[C@@H](C)[C@@H]1OC(C)=O (stereo partly drawn)	none (no result: GIV Gai3 FP)
CCn1c2ccccc2c2nnc(N3CCN(c4ccccc4)CC3)nc21	none
Cc1cc(=O)[nH]c(O)c1C(=O)O	HCMV NEC inh 65
Cc1cc(C)n(C)c(=O)c1C(=O)O	none (no result: HCMV NEC inh)
CC1COc2c(F)c(F)cc3c(=O)c(C(=O)O)cn1c23 (stereo not drawn)	none (no result: Sa growth inh, GIV Gai3 FP)
CCn1cc(C(=O)O)c(=O)c2cc(F)c(N3CCNC(C)C3)c(F)c21 (stereo not drawn)	Sa growth inh -0.6
Cc1cc(-c2csc(NC(=O)C3CC3)n2)c(C)n1-c1ccc(F)cc1	none (no result: GIV Gai3 FP)
N#Cc1c(N)nc(SCC(=O)c2ccccc2)c(C#N)c1-c1ccc(O)cc1	HCMV NEC inh 30 (no result: Sa growth inh)
N#Cc1c(N)nc(SCC(=O)c2ccc(Br)cc2)c(C#N)c1-c1ccc(O)cc1	none (no result: Sa growth inh)
Clc1ncnc2sc3c(c12)CCC3	none
N#CCN(CC#N)C(=O)c1cccs1	none
N#CSCC(=O)c1cccs1	Sa growth inh 1.0 (no result: GIV Gai3 FP)
Cc1cc2ncc(-c3ccccc3)nc2cc1C	none
c1ccc(-c2cnc3nonc3n2)cc1	Sa growth inh 0.8 (no result: GIV Gai3 FP)
